# From US9108949B2, “Compounds and methods of prophylaxis and treatment regarding nicotinic receptor antagonists” (dated 2015)
# Chains of the proteins cited; added tags and fusions are not shown. Lines headed by an entry give the natural chain unless they say otherwise; changes in a name come on top. Residues count along the entry.
# UniProt P46098, 24-478 limits assumed: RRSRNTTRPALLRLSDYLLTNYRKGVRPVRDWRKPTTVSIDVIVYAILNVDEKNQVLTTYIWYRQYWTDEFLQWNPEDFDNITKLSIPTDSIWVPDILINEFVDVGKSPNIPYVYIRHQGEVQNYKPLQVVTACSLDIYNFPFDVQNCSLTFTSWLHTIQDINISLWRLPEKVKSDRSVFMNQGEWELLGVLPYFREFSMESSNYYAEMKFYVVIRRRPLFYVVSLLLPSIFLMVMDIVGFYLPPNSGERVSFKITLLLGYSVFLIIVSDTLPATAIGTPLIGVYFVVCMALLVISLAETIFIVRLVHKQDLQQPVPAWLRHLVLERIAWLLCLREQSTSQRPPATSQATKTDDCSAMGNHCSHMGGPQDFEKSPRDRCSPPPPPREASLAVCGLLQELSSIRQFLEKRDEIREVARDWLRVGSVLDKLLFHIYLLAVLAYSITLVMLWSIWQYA
# UniProt P02708: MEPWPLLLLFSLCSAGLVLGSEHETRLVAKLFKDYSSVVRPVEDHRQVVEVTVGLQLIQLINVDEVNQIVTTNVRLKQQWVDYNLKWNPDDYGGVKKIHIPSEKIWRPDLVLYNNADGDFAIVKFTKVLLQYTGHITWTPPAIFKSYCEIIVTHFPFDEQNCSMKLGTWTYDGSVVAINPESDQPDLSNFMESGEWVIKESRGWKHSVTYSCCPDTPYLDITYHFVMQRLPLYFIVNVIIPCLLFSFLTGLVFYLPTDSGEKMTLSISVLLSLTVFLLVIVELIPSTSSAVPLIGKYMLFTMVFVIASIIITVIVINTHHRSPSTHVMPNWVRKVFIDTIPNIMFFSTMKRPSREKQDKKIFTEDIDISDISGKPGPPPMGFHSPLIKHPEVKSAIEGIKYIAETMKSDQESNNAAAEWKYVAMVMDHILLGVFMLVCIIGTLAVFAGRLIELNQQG
# UniProt P07510: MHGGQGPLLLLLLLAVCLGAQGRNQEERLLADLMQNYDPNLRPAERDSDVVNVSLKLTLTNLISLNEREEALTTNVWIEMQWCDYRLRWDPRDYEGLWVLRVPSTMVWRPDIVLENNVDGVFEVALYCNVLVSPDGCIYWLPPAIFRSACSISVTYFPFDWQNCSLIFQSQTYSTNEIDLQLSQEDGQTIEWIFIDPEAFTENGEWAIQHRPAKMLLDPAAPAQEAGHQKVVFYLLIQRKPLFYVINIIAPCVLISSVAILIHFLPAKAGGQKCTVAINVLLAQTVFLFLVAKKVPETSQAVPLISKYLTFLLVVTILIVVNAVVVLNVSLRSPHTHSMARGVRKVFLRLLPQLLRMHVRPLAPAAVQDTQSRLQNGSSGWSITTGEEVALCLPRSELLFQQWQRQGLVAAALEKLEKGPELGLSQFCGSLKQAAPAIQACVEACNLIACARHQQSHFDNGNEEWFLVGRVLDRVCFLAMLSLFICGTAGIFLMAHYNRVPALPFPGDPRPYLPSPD
# UniProt Q07001: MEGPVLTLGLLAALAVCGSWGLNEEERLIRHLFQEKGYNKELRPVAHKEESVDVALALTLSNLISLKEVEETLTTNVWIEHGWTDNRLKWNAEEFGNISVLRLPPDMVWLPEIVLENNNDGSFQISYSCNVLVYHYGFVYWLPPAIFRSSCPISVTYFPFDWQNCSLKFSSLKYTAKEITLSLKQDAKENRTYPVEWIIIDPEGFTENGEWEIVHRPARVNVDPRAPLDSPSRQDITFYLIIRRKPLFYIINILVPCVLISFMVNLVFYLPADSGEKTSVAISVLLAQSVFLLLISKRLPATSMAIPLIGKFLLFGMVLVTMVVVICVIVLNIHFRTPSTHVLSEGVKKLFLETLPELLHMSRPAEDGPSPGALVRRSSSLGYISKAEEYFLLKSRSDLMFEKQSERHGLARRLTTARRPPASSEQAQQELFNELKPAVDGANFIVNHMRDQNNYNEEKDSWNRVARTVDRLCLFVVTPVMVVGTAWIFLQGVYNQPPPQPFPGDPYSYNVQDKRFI
# Columns and labels:
# human 5HT3 receptor = human 5HT3 receptor (Homo sapiens, UniProt P46098); test: 5HT3 binding on recombinant CHO cells with [3H]BRL 43694; conditions: at 10 1M
# muscle-type nAChR = muscle-type nAChR (Homo sapiens, UniProt P02708+P07510+Q07001); test: Muscle-type nAChR binding in human TE671 cells with [125I]α-BTX; conditions: at 10 μM
# [1] = tested on: seizure induced by the nerve agent diisopropylfluorophosphate (DFP); test: DFP toxicity animal model, anti-seizure activity
# [2] = tested on: time-dependent memory deficit model; test: Novel Object Recognition test, time-dependent memory deficit model; conditions: for relative cognitive score (d2): i.p. 15 min before T1, 24 h inter-trial interval
Compound,binding to the 5HT3 receptor (human 5HT3 receptor) [%],binding to the muscle-type nAChR (muscle-type nAChR),"Normalized % neuroprotection (antagonism of DFP-induced seizure-like behaviors) ([1]; compared with DFP controls, over a 2 h period post-injection) [%]","Seizure score (mean ± SD) ([1]; pretreatment before DFP, 2 h period post-injection)",Normalized % seizure ([1]; relative to DFP controls) [%],"cognition in Novel Object Recognition test ([2]; administered 1 hour after T1, 1.0 mg/kg)","cognition in Novel Object Recognition test ([2]; administered 1 hour after T1, about 3.0 mg/kg)",relative cognitive score (d2) ([2]; 3.0 mg/kg),relative cognitive score (d2) ([2]; doses up to 1.0 mg/kg)
O=C(NCC1CCN(Cc2ccccc2)CC1)c1cn(Cc2cccc(Cl)c2)nn1,8.4,no detectable binding,,,,,,,
CN(CC1CCN(Cc2ccccc2)CC1)C(=O)c1cn(Cc2ccccc2Cl)nn1,,,93.4,0.6 ± 1.3,6.6,significantly enhances cognition,reduced cognition,no increase in cognition,progressive increase
